Biological target: T1, topoisomerase II (Topo II) (Homo sapiens, UniProt P11388)
T1 construct: purchased TopoGEN Inc. (Buena Vista, CO, USA) 1009-1
Experiment: Topoisomerase II inhibitory assay (pRYG DNA relaxation, agarose gel)
Assay type: biochemical
Settings: 50 µM, 5.0 units Topo II, 250.0 ng pRYG DNA, mean ± SD of two assays

Sequences of proteins named here, by UniProt entry; tags and fusion partners are left off. A change or cut given only in a name is not applied to a line headed by its entry.
UniProt P11388: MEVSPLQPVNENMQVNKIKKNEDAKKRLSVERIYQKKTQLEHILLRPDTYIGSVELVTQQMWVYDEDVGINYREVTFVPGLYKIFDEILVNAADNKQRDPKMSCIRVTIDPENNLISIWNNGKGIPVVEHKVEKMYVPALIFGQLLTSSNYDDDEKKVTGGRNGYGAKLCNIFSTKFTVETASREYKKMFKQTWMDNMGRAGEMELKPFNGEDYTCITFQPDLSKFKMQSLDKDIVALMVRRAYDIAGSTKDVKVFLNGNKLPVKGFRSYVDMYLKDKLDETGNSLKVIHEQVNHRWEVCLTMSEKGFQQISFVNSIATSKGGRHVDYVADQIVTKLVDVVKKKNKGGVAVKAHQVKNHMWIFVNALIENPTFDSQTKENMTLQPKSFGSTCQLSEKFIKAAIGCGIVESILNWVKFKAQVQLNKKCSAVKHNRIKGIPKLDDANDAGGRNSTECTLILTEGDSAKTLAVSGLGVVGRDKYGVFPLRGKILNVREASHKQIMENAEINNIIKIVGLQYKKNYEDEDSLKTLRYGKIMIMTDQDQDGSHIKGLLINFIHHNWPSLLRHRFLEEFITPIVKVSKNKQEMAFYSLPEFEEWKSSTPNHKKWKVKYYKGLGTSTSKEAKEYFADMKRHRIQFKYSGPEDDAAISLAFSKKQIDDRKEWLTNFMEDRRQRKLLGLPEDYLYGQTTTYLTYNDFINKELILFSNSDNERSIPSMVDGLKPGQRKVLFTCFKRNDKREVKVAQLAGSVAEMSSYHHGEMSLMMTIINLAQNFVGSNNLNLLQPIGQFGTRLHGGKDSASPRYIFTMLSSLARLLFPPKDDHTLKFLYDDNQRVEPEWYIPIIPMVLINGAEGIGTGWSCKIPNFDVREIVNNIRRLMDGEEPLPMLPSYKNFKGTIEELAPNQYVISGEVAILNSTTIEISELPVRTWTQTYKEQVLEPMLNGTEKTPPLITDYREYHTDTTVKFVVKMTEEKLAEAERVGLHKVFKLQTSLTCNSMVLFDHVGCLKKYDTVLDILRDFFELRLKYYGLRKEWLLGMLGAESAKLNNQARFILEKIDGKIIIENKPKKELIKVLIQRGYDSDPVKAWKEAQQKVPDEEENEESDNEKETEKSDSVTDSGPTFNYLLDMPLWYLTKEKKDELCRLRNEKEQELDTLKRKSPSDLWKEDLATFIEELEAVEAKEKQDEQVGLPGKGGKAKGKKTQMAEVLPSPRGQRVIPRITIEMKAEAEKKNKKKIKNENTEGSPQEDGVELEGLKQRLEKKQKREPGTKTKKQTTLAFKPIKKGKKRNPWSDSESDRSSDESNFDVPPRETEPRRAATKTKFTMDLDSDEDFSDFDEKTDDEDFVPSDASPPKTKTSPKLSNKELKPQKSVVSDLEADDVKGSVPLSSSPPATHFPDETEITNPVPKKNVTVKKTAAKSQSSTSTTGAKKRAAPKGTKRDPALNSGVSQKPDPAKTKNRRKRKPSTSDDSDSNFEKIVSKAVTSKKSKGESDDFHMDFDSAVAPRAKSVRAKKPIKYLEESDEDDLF

- relative intensity of relaxed DNA band (normalized to No drug sample): 0.75 ± 0.04
SMILES: COc1cc([C@@H]2c3cc4c(cc3[C@@H](O[C@@H]3O[C@@H]5CO[C@@H](C)O[C@H]5[C@H](O)[C@H]3O)[C@H]3COC(=O)[C@H]23)OCO4)cc(OC)c1O [VP-16, etoposide, reference compound]

Reference: paper PMC11642940, “A New Demand for Improved Selectivity and Potency of Cyanine Dyes as Antiproliferative Agents Against Colorectal Cancer Cells” (Molecules, 2024)
